In the data set the test system is subjects with primary osteoarthritis of the knee. Kind of data set: 12-week randomized controlled trial: safety (adverse events, laboratory parameters, ocular examination). It counts as in vivo, human. The settings on record: 12 weeks. As for the experimental part:
Study Design: Eligible subjects were stratified by the investigator at baseline into stratum 1 (no pain and normal radiological examination in the non-study knee) or stratum 2 (pain and/or abnormal radiological examination in the non-study knee), and then randomized into the trial by receiving the next numbered study kit at that clinic for that stratum. […] Subjects applied 40 drops of solution (approximately 1.2 mL) around the entire circumference of the study knee, without massage, 4 times daily, and took one study tablet daily for up to 12 weeks.
Each subject completed a full efficacy assessment questionnaire after randomization at baseline and at 4, 8 and 12 weeks, or at drop out. […] The POHA asked the question, “Considering all the ways your osteoarthritic (study) knee and its treatment affect you, including both positive and negative effects, how would you rate your overall state of health in the past 48 hours?” Secondary efficacy variables were WOMAC stiffness and patient global assessment (“PGA”) of knee osteoarthritis. The PGA asked the question, “How has the osteoarthritis in your study joint been over the last 48 hours?” The POHA and PGA were scored on a 5-point Likert scale. There was no assessment of the non-treated knee. […] Adverse events were categorized according to Coding Symbols for Thesaurus of Adverse Reaction Terms (“COSTART”). […]

One compound from patent publication US20200352886A1, “TREATMENT OF PAIN WITH TOPICAL DICLOFENAC” (priority 2009, published 2020) can be followed below.

With `O=C(O)Cc1ccccc1Nc1c(Cl)cccc1Cl` [ODiclo, diclofenac], the “Liver function tests abnormal” value is given as 12 (7.9) number (%) of subjects.
